Reference: PubChem BioAssay AID687016 (The Scripps Research Institute Molecular Screening Center, 2013)
This is a selection; strong and weak results do not stand in their true shares. Active and inactive are the calls of the source. Rule as the data show it: active = inhibition above about 21%; inactive = the rest.

By UniProt entry, the sequences of proteins in these tests, tags left out.
UniProt Q96T88, whole entry: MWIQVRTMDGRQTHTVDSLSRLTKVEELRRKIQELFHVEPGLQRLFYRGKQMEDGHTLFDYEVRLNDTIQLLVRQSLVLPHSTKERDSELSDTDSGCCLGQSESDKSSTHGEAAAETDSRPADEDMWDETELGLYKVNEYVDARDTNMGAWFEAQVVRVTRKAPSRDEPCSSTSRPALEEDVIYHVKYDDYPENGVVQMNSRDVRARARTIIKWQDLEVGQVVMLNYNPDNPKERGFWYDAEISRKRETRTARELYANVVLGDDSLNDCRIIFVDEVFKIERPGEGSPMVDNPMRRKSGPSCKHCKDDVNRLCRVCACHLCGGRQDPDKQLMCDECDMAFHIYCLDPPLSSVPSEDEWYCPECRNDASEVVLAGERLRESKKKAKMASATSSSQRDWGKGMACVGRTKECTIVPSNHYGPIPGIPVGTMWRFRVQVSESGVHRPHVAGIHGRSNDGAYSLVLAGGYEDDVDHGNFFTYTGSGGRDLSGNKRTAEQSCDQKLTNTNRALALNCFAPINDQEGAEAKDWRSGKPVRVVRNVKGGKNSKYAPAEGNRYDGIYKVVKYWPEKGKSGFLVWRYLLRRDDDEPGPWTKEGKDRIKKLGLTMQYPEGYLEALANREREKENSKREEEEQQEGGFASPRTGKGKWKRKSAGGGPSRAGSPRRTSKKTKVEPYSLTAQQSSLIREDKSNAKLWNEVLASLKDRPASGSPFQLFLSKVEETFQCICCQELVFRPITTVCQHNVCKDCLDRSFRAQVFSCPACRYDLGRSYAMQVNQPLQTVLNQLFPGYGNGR

Biological target: E3 ubiquitin-protein ligase UHRF1 (Homo sapiens) (UniProt Q96T88)
Experiment: blockers of UHRF1 binding to methyl-oligo – biochemical, TR-FRET, human UHRF1, single concentration, counter-screen for MBD2 inhibitor project, primary screen (AID 687016);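 also: UHRF1 SRA domain binding a hemimethylated CpG hairpin DNA probe; 0% = median of test compound wells and 100% = reference inhibitor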
Details: UHRF1 binding to methylated oligo, at 4.4 µM, stronger effect = higher value

SMILES	inhibition
CCOP(C)(=S)SCC(=O)NC(C)C(=O)O (stereo unspecified)	inactive: 2.15%
Cc1cc(C)cc(OP(C)(=O)Nc2ccc(SC(F)(F)F)cc2)c1 (stereo unspecified)	inactive: -1.49%
CCc1ccc(OP(C)(=O)N2CCN(c3ccc([N+](=O)[O-])cc3)CC2)cc1 (stereo unspecified)	inactive: 4.91%
CP(=O)(NC(=O)Nc1ccccc1)Oc1ccccc1 (stereo unspecified)	inactive: -1.71%
CP(=O)(Oc1ccccc1)OC(c1ccccc1)C(F)(F)F (stereo unspecified)	inactive: -0.27%
Cc1cccc(C)c1OP(C)(=O)Nc1ccc(SC(F)(F)F)cc1 (stereo unspecified)	inactive: 2.62%
CP(=O)(Nc1ccc(SC(F)(F)F)cc1)Oc1ccc(Cl)cc1 (stereo unspecified)	inactive: -0.78%
CP(=O)(Nc1ccccc1Br)Oc1ccccc1 (stereo unspecified)	inactive: 4.06%
COc1ccccc1OP(C)(=O)Nc1ccccc1 (stereo unspecified)	inactive: -1.29%
CP(=S)(Nn1cnnc1)Oc1ccccc1 (stereo unspecified)	inactive: -4.46%
Cc1cc(C)cc(OP(C)(N)=O)c1 (stereo unspecified)	inactive: 0.91%
COc1ccc(OP(C)(=O)Nc2cccc(F)c2)cc1 (stereo unspecified)	inactive: -0.34%
COc1ccccc1OP(C)(=O)Nc1cc(Cl)ccc1C (stereo unspecified)	inactive: 0.55%
Cc1ccc(NP(C)(=O)Oc2ccccc2)c(C)c1 (stereo unspecified)	inactive: -1.41%
COc1ccccc1OP(C)(=O)Nc1ccc(C)cc1 (stereo unspecified)	inactive: 4.66%
CCOC(=O)c1ccc(NP(C)(=O)Oc2ccccc2)cc1 (stereo unspecified)	inactive: -1.99%
O=[N+]([O-])c1ccc2c(c1)C=Nc1ccccc1O2	inactive: -4.09%
Cc1cccc(C)c1OP(C)(N)=O (stereo unspecified)	inactive: -0.83%
CC(C)(C)c1ccc(OP(C)(=O)Nc2ccc(SC(F)(F)F)cc2)cc1 (stereo unspecified)	inactive: 1.57%
O=[N+]([O-])c1cc([N+](=O)[O-])c(Nc2cccnc2)c([N+](=O)[O-])c1	inactive: -5.6%
COc1ccccc1-c1ccccn1.O=[N+]([O-])c1cc([N+](=O)[O-])c(O)c([N+](=O)[O-])c1	inactive: -1.96%

SMILES	inhibition
CCN(CC)CCCOC(=O)C(O)(c1ccccc1)c1ccccc1	inactive: 1.77%
Cc1ccc(C)c(NP(C)(=O)Oc2ccccc2)c1 (stereo unspecified)	inactive: -1.25%
CP(=O)(Nc1cccc(Br)c1)Oc1ccccc1 (stereo unspecified)	inactive: 3.5%
Cc1cc(C)cc(OP(C)(=O)Nc2ccccn2)c1 (stereo unspecified)	inactive: -1.1%
CCOC(=O)c1ccc(NP(C)(=O)Oc2cc(C)cc(C)c2)cc1 (stereo unspecified)	inactive: 3.68%
Cc1cc(C)cc(OP(C)(=O)Nc2ccc(C)cc2C)c1 (stereo unspecified)	inactive: -0.61%
COc1ccccc1OP(C)(=O)Nc1cccc(Br)c1 (stereo unspecified)	inactive: -2.75%
CC1=NCCc2c1[nH]c1ccccc21.O=[N+]([O-])c1cc([N+](=O)[O-])c(O)c([N+](=O)[O-])c1	inactive: 2.46%
O=C(O)c1cccc(Nc2c([N+](=O)[O-])cc([N+](=O)[O-])cc2[N+](=O)[O-])c1	inactive: -0.06%
COc1ccc(-c2ccccn2)cc1.O=[N+]([O-])c1cc([N+](=O)[O-])c(O)c([N+](=O)[O-])c1	inactive: 8.16%
CP(=O)(Nc1ccc(SC(F)(F)F)cc1)Oc1ccccc1 (stereo unspecified)	inactive: -0.39%
CCCOc1ccc(NP(C)(=O)Oc2ccc(Cl)cc2)cc1 (stereo unspecified)	inactive: 1.85%
COc1ccccc1OP(C)(=O)Nc1c(C)cccc1C (stereo unspecified)	inactive: -1.13%
CN1CCCCC1COC(=O)C1(O)c2ccccc2CCc2ccccc21 (stereo unspecified)	inactive: -0.58%
CCOC(=O)C(CC)C1=NC(C)(C)Cc2ccccc21.O=[N+]([O-])c1cc([N+](=O)[O-])c(O)c([N+](=O)[O-])c1 (stereo unspecified)	inactive: -3.64%
O=[N+]([O-])c1cc([N+](=O)[O-])c(Nc2nnnn2CCO)c([N+](=O)[O-])c1	inactive: -2.91%
Cc1nc2ccc3ccccc3c2s1.O=[N+]([O-])c1cc([N+](=O)[O-])c(O)c([N+](=O)[O-])c1	inactive: 4%
O=[N+]([O-])c1cc([N+](=O)[O-])c(-c2cnn(-c3ccccc3)c2)c([N+](=O)[O-])c1	inactive: 2.57%
CN(Cc1cccnc1)C(=O)COc1ccc(Cl)c(Cl)c1.O=[N+]([O-])c1cc([N+](=O)[O-])c(O)c([N+](=O)[O-])c1	inactive: -2.24%
O=[N+]([O-])c1cc([N+](=O)[O-])c(-n2nnc3ccccc32)c([N+](=O)[O-])c1	inactive: 4.92%
